# Values of other authors in PubChem BioAssay AID1811 (Shanghai Institute of Organic Chemistry, 2009).
# The other results are listed elsewhere or left out. Active and inactive are the calls of the source. Unless stated, no cut-off for active and inactive is given here.
# System: chitinase b
# Assay: PubChem AID 1811
# Details: PDB complex binding affinities from literature
smiles,measurement,value
O=C[C@H]1CCCN1,outcome,active
